Results taken from patent US5196547A, “Meso-azacyclic amides of imidazopyridine carboxylic acids and analogs thereof” (G. D. Searle & Co., priority 1992, dated 1993).

Protein sequences, listed by entry. Tags and fused reporters are not part of them. Residues count along the entry.
UniProt P35563, 24-483: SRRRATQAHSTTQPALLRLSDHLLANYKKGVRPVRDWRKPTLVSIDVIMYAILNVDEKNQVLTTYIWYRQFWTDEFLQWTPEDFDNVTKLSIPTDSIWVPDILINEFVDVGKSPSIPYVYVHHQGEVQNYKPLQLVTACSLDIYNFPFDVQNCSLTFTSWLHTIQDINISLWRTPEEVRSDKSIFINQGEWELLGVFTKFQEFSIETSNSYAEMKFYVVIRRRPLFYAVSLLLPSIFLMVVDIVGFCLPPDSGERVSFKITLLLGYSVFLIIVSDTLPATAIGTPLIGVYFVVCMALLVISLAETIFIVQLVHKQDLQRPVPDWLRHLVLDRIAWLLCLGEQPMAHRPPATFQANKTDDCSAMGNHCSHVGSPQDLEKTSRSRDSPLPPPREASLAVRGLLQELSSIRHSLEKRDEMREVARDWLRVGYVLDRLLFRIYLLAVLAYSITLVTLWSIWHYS

Target: T1, 5-HT3 receptor (Rattus norvegicus, UniProt P35563)
T1 construct: Brain cortices are obtained from male rats and a membrane fraction prepared by standard techniques; from tissue; host or cells: male rat brain cortex, membrane fraction
Assay: Serotonin (5-HT3) radioligand receptor binding assay, [3H]-GR65630
Method: 5-HT3 antagonism can be determined by the radioligand receptor binding assay as described herein and in the in vivo Bezold-Jarisch reflex procedure.
GR65630 binds to the 5-HT3 receptor. Brain cortices are obtained from male rats and a membrane fraction prepared by standard techniques. 0.04 mg of membrane prep is incubated with 0.2 nM [^3 H]-GR656630 for 60 minutes at 22° C. […] Membranes are filtered and washed 3 times and the filters are counted to determine [3H]-GR65630 specifically bound.*
*Literature References: Kilpatrick GJ, Jones BJ and Tyers MG. Identification and distribution of 5-HT3 receptors in rat brain using radioligand binding. Nature, 330 : 746-748, 1987.

Q: Which IC50 does the source give for `NCCc1c[nH]c2ccc(O)cc12` [Example 5-HT, Serotonin] here?
A: 122 nM

Q: And the Ki?
A: 390 nM
